Results as given in PubChem BioAssay (Tox21).
“And” between values parts separate entries of the source, which are not always exact repeats. Equal entries are not always repeated. Only a part is listed here, and it is no random draw. Records with an inconclusive call do not appear. Where a structure was tested more than once in an assay, its records may differ in their call. The source made the active and inactive calls. Unless noted, calls follow the shape of the dose curve; as a rule, active = well fitted curve in the direction sought with a large enough effect in the repeat runs; inconclusive = weak or mixed curves; inactive = no such curve, though single readings can be large; an effect the other way counts as inactive or inconclusive.

Protein sequences, listed by entry. Tags and fused reporters are not part of them.
UniProt P08659, whole entry: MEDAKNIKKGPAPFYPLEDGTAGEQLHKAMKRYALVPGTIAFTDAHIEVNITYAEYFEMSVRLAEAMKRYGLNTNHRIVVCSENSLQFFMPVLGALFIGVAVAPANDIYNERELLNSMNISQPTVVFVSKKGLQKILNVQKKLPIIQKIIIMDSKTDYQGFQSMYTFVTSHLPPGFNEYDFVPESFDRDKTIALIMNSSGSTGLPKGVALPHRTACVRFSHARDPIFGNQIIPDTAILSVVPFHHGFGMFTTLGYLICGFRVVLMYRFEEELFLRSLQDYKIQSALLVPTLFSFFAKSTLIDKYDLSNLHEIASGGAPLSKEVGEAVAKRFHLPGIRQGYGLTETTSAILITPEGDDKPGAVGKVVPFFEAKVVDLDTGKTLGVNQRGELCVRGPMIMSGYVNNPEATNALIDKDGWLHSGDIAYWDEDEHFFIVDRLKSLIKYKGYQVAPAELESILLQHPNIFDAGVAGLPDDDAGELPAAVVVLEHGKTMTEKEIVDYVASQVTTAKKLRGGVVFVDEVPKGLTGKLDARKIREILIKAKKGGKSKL
UniProt Q14994, whole entry: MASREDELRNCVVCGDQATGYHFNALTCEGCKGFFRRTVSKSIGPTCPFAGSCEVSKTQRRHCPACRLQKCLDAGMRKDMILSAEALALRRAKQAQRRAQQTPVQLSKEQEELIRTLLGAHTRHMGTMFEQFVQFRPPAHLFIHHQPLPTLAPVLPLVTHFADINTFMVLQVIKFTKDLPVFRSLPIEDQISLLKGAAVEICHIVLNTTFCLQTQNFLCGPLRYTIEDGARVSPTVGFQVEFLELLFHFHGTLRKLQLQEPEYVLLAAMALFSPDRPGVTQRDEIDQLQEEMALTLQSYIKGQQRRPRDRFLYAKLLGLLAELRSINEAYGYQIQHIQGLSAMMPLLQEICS

Key:
[1] = qHTS assay to identify small molecule agonists of the retinoic acid receptor (RAR) signaling pathway (AID 1159553); settings: C3RL4 RARE luciferase reporter, agonist, 6 h
Summary of the method: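 C3RL4 cells carrying a RARE luciferase reporter were plated overnight at 37 C, then exposed to compounds in DMSO for 6 hr at 37 C and 5% CO2. Luminescence was read 30 min after luciferase reagent addition at room temperature.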

[2] = qHTS assay to identify small molecule antagonists of the estrogen related receptor (ERR) signaling pathway from Tox21 library - cell viability counter screen (AID 1224834); settings: ERR reporter cells viability, CellTiter-Fluor, 17.5 h; at 92.4 µM (top of the series) unless noted; also: nearly all actives have a fitted effect of over 30% in size
Summary of the method: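 ERR reporter cells were plated 6 h before compound addition, then exposed to test compounds in DMSO for 17.5 h at 37 C. Viability was read as CellTiter-Fluor fluorescence after a 30-minute incubation at 37 C.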

[3] = molecular target: Luciferin 4-monooxygenase (Photinus pyralis) (UniProt P08659); experiment: qHTS assay to identify small molecule inhibitors of firefly luciferase (AID 1224835); also: nearly all actives have a fitted effect of over 25% in size; settings: purified P. pyralis luciferase, luminescence inhibition; at 115 µM (top of the series) unless noted
Summary of the method: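 Quantitative HTS format; KM concentrations of both substrates. Purified P. pyralis FLuc activity quantified from luminescence images.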

[4] = qHTS assay to identify small molecule agonists of the constitutive androstane receptor (CAR) signaling pathway - cell viability counter screen (AID 1224836); settings: HepG2-CYP2B6-hCAR viability, CellTiter-Fluor, 23 h, PK11195 added to every well; at 92.4 µM (top of the series) unless noted; also: nearly all actives have a fitted effect of over 45% in size
Summary of the method: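 Double-stable HepG2 hepatoma cells (hCAR plus CYP2B6-2.2kb) are treated for 23 h at 37 C with test compounds in 15-point concentration series. PK11195 at 0.75 uM final is co-added. Cell viability is quantified by CellTiter-Fluor.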

[5] = qHTS assay to identify small molecule antagonists of the constitutive androstane receptor (CAR) signaling pathway - cell viability counter screen (AID 1224837); settings: HepG2-CYP2B6-hCAR viability, CellTiter-Fluor, 23 h, co-treated with 50 nM CITCO; at 92.4 µM (top of the series) unless noted; also: nearly all actives have a fitted effect of over 45% in size
Summary of the method: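 HepG2 cells stably expressing hCAR and a CYP2B6-2.2kb reporter were plated and pre-incubated 4 hr at 37 C/5% CO2, then given compounds at 15 concentrations plus 50 nM CITCO (final). After 23 hr, viability was read by CellTiter-Fluor fluorescence.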

[6] = molecular target: Nuclear receptor subfamily 1 group I member 3 (Homo sapiens) (UniProt Q14994); experiment: qHTS assay to identify small molecule antagonists of the constitutive androstane receptor (CAR) signaling pathway (AID 1224838); settings: HepG2-CYP2B6-hCAR luciferase, CITCO-stimulated, 24 h; at 92.4 µM (top of the series) unless noted; also: nearly all actives have a fitted effect of over 40% in size
[7] = molecular target: Nuclear receptor subfamily 1 group I member 3 (Homo sapiens) (UniProt Q14994); experiment: qHTS assay to identify small molecule agonists of the constitutive androstane receptor (CAR) signaling pathway (AID 1224839); settings: HepG2 hCAR CYP2B6-luciferase, agonist mode, 24 h; at 92.4 µM (top of the series) unless noted;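 also: HepG2 cells stably carrying human CAR and a CYP2B6 luciferase reporter; nearly all actives have a fitted effect of over 15% in size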
[8] = qHTS assay to identify small molecule antagonists of the estrogen related receptor signaling pathway with the pleiotropic PPARgamma coactivator (PGC) from Tox21 10K library - cell viability counter screen (AID 1224840; active = well fitted cell-killing curve with a large enough effect in the repeat runs, not every such curve was filed as active; also: nearly all actives have a fitted effect of over 40% in size); settings: PGC/ERR reporter cells viability, CellTiter-Fluor, 17.5 h; at 92.4 µM (top of the series) unless noted
Summary of the method: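 PGC/ERR cells were seeded at 2,000 cells/well and left 6 hours at 37 C/5% CO2 before pin-tool addition of compounds in DMSO. After 17.5 hours at 37 C, CellTiter-Fluor was added and fluorescence read 30 minutes later.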

[9] = qHTS assay to identify small molecule agonists of the estrogen related receptor signaling pathway with the pleiotropic PPARgamma coactivator (PGC) from Tox21 10K library (AID 1224842); settings: PGC/ERR reporter cell line, luciferase ONE-Glo, 18 h; at 92.4 µM (top of the series) unless noted; also: nearly all actives have a fitted effect of over 15% in size
Summary of the method: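 PGC/ERR reporter cells (NTP line) were seeded 2,000 per well, rested 6 h at 37 C/5% CO2, then pin-dosed with compounds in DMSO for 18 h at 37 C; luciferase read by One-Glo luminescence after 30 min at room temperature.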

[10] = qHTS assay to identify small molecule antagonists of the estrogen related receptor signaling pathway with the pleiotropic PPARgamma coactivator (PGC) from Tox21 10K library (AID 1224841; call rule not given here; also: actives are mostly falling curves and most rising ones were filed inactive; nearly all actives have a fitted effect of over 50% in size; also: potency is read from the fitted curve at half-maximal effect); settings: PGC/ERR reporter cell line, ONE-Glo luciferase, 18 h; series mostly up to 92.4 µM
% is scaled to controls: 0 for no effect and ±100 for the full control effect.

ClCCOP(OCCCl)OCCCl
inactive: activation ([1]; at 73.3 µM (top of the series)) -1.86% | activation ([1]; at 94.8 µM (top of the series)) -0.0191% | viability change, negative = cytotoxic [2] -0.941% | activity change, negative = inhibition [3] 0.677% and 3.31% | viability change, negative = cytotoxic [4] 1.77% and 0.487% | activity change, negative = cytotoxicity [5] 2% and 7.27% | activity, negative = inhibition [6] 28.4% and -0.0475% | activation [7] 1.32% and -0.264% | viability change, negative = cytotoxic [8] 1.19% and -1.91% | activation [9] -4.53% and -8.2%

CCOC(=O)N1CCC(=O)CC1
inactive: activation ([1]; at 73.3 µM (top of the series)) 0.33% | viability change, negative = cytotoxic [2] 2.67% [at 42.5 µM] | activity change, negative = inhibition [3] -0.195% [at 52.9 µM] | viability change, negative = cytotoxic [4] 5.64% [at 42.5 µM] | activity change, negative = cytotoxicity [5] 2.05% [at 42.5 µM] | activity, negative = inhibition [6] -13.7% [at 42.5 µM] | activation [7] 0.0974% [at 42.5 µM] | viability change, negative = cytotoxic [8] -1.79% [at 42.5 µM] | Potency [10] | activation [9] -0.692% [at 42.5 µM]

O=[N+]([O-])c1ccccc1[N+](=O)[O-]
inactive: activation ([1]; at 73.3 µM (top of the series)) 2.88% | activation ([1]; at 94.8 µM (top of the series)) 1.76% | viability change, negative = cytotoxic [2] -9.56% | activity, negative = inhibition [6] -29.1% and -61.2% | viability change, negative = cytotoxic [8] -14.2% and -18.2% | activation [9] -18.4% and -8.16%
35.3 µM (active) and inactive: Potency [10]

CCOP(=O)(Cl)Cl
inactive: activation ([1]; at 73.3 µM (top of the series)) -4.02% and -1.72% | viability change, negative = cytotoxic [2] -1.28% and 3.6% | activity change, negative = inhibition [3] -5.69% and 0.548% | viability change, negative = cytotoxic [4] 4.59% and 3.68% | activity change, negative = cytotoxicity [5] 8.46% and 1.13% | activity, negative = inhibition [6] 8.96% and -2.79% | activation [7] 3.86% and -0.874% | viability change, negative = cytotoxic [8] -0.451% and 0.346% | Potency [10] | activation [9] 3.24% and -4.15%

CCOP(=S)(Cl)OCC
inactive: viability change, negative = cytotoxic [2] 1.08% | viability change, negative = cytotoxic [4] 1.84% | activity change, negative = cytotoxicity [5] 0.0766% | activity, negative = inhibition [6] 1.02% | activation [7] 0.903% | viability change, negative = cytotoxic [8] 0.865% | Potency [10] | activation [9] 0.36%

CC(C)OP(OC(C)C)OC(C)C
inactive: viability change, negative = cytotoxic [2] 1.6% | activity change, negative = inhibition [3] 1.64% | viability change, negative = cytotoxic [4] 2.76% | activity change, negative = cytotoxicity [5] 0.58% | activity, negative = inhibition [6] -2.57% | activation [7] 0.133% | viability change, negative = cytotoxic [8] 4.7% | Potency [10] | activation [9] 5.71%

CCC(=O)N(c1ccccc1)C1CCNCC1
inactive: activation ([1]; at 73.3 µM (top of the series)) -3.14% | viability change, negative = cytotoxic [2] 0.195% [at 42.5 µM] | activity change, negative = inhibition [3] -3.71% [at 52.9 µM] | viability change, negative = cytotoxic [4] -13.1% [at 42.5 µM] | activity change, negative = cytotoxicity [5] -14.9% [at 42.5 µM] | viability change, negative = cytotoxic [8] -3.28% [at 42.5 µM] | Potency [10] | activation [9] 0.0458% [at 42.5 µM]

ClCCNCCCl
inactive: activity change, negative = inhibition [3] 0.138% | viability change, negative = cytotoxic [4] 0.942% | activity change, negative = cytotoxicity [5] 2.07% | activity, negative = inhibition [6] -17.7% | activation [7] 1.45% | viability change, negative = cytotoxic [8] 5.62% | activation [9] -6.93%
